Earlier results on three compounds are cited in patent US20240024490A1 (published 2024).

Protein sequences, listed by entry. Tags and fused reporters are not part of them.
UniProt P45983, whole entry, species assumed: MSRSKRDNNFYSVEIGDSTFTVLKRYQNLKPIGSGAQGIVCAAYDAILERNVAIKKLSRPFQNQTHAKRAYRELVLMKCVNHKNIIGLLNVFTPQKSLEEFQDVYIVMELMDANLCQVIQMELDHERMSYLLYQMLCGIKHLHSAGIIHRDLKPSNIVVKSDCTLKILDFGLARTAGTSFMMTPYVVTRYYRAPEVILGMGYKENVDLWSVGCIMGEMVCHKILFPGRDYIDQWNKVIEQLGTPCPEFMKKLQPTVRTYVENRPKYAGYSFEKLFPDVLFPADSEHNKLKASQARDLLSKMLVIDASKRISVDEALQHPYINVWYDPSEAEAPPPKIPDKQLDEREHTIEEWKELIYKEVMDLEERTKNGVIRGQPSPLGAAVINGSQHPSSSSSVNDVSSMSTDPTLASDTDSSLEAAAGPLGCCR

Like-named read-outs stand apart in the source and are kept apart here.

As a reminder, the IC50 is the point on the concentration scale where inhibition reaches its midpoint.

For data set [1], the system named is screening panel of kinases. To be noted: read-out: IC50 for many kinases of a screening panel; cited from earlier work.
In the next data set the target is JNK 1 (Homo sapiens, UniProt P45983). To be noted: read-out: IC50 JNK 1; cited from earlier work.
For the next data set, the system named is Crk-L. To be noted: cited from earlier work.

Regarding `Cc1ccc(-n2nc(C(C)(C)C)cc2NC(=O)Nc2ccc(OCCN3CCOCC3)c3ccccc23)cc1` [Doramapimod], the IC50 in data set [1] is less than 0.1 µM.
`Cn1cc2cc(Oc3ccc(NC(=O)Nc4cc(C(C)(C)C)nn4-c4ccccc4)cc3)ccc2n1` [compound 1]: on JNK 1, the IC50 was 0.88 µM.
For the compound `CC(=O)NC1=NN(c2ccc(Cl)c(Cl)c2)CC1C` (stereo not shown) [compound 45], the figures for the “Fold Increase phCRKE Vs Total Crk-L (normalised)” value in the data set with Crk-L (40 min) and in the data set with Crk-L (180 min) were 1x and 5x, respectively.
